Measured values published in patent US20090318402A1, “RUTHENIUM (II) COMPOUNDS” (The University Court of the University of Edinburg, priority 2006, published 2009).

Columns and labels:
[1] = Aqueous solution chemistry followed by 1H NMR (hydrolysis, arene loss); format: physicochemical; settings: for half life of decomposition of the intact cation: pseudo first order; for speciation: arene loss / speciation: hydrolysis / speciation: intact cation: after 24 h
Description: NMR-Spectroscopy: All ^1H NMR experiments for characterization of synthesized compounds were recorded on either a Bruker DMX 500 MHz spectrometer equipped with TBI [^1H, ^13C, ^15N] probe-head, equipped with z-field gradients or a Bruker DPX 360 MHz spectrometer. The proton signals were calibrated against the residual solvent peak, δ 7.27 (chloroform), 2.07 (acetone) and 2.52 (DMSO). The 2D ^1H-TOCSY and 2D ^1H COSY experiments for characterization were run on a Bruker DMX 500 MHz spectrometer. 2D-^1H ROESY experiment for characterization was recorded on a Bruker AVA […] spectrometer equipped with a with a TXI [^1H, ^13C, ^15N] probe-head, equipped with z-field gradients. All pH titration experiments were recorded on a Bruker AVA 600 MHz spectrometer where dioxan was added as an internal reference (δ 3.75, in 100% D2O). The water was suppressed using a 1D Double Pulse Field Gradient Spin Echo (DPFGSE) experiment. The aqueous solution behaviour was recorded on a Bruker bio 600 MHz spectrometer equipped with a cryoprobe and the water was suppressed using a 1D Double Pulse Field Gradient Spin Echo (DPFGSE) experiment. The chemical shifts were measured relative to dioxin (internal reference δ 3.75, in 90% H2O/10% D2O). All spectra were recorded using 5 mm quartz tubes at 298 K unless stated otherwise. All NMR data were processed using Xwin-NMR (Version 2.0 Bruker UK Ltd).
The complex was dissolved in H2O/D2O, the pH was taken, and NMR spectra were recorded at uniform time intervals at a fixed temperature using a multi-zg kinetic experiment program. After acquisition, Electrospray Mass Spectrometry was performed on a portion of the NMR solution.
The solution chemistry was followed by ^1H NMR unless stated otherwise.

[2] = Solution chemistry in phosphate buffer mimicking cell test conditions (NMR, ESI-MS); format: physicochemical; settings: 100 μM, 10 mM phosphate buffer, 95% D2O, 5% MeOD, 310 K, 24 h; pH* 7.35 (8), 7.40 (10), 7.31 (13), 7.38 (21)
Description: Solutions of four ruthenium complexes (8, 10, 13 and 21) in MeOD were diluted down in 10 mM phosphate buffer/D2O to give a final concentration of 100 μM ruthenium (95% D2O, 5% MeOD) and NMR spectra were recorded at 310 K initially (time ca. 15 minutes) and after 24 h. The pH* of the samples was 7.35 (8), 7.40 (10), 7.31 (13) and 7.38 (21), The samples were kept in the water bath at 310 K between acquisitions. After 24 hour, ESI-MS was performed on the samples. These conditions were chosen to mimic pH, concentration, exposure time and temperature for the biological cell tests.

[3] = 50 μM, 95% H2O, 5% MeOH, pH 2.25
[4] = saturated solution, 90% H2O/10% D2O, pH=ca.5.8, 25° C., after 24 hours
[5] = 100 μM, 90% H2O/10% D2O, pH=ca 5.8, 25° C., after 24 hours
[6] = 100 μM, 90% H2O/10% D2O, pH=ca 5.8, 37° C., after 24 hours
[7] = saturated solution, 90% H2O/10% D2O, pH=ca. 4.5, 25° C., after 24 hours
[8] = saturated solution, 90% H2O/10% D2O, 37° C. over 24 hours
[9] = 100 μM, 95% D2O, 5% MeOD, pH=7, 37° C., over 24 hours
[10] = 90% H2O/10% D2O, ca. 100 μM, initial pH 5.46, 310 K
[11] = 100 μM, 99.5% D2O, 0.5% DMSO, 115 mM NaCl, 37° C., after 24 hours
[12] = 90% H2O/10% D2O, ca. 100 μM, initial pH 6.42, 310 K

Substance: [Ru(THN)(4-phenol-azo pyridine)Cl]PF6 [Compound 19]
- hydrolyzed species [1, 4]: 13%
- intact chloride species [1, 4]: 87%

Substance: [Ru(p-cymene)(4-phenol-azo pyridine)Cl]PF6 [Compound 11]
- complex after arene loss [1, 5]: 20%
- hydrolysed product [1, 5]: 10%
- initial chloro form [1, 5]: 69%
- hydrolysed [1, 6]: 31%
- initial chloro complex [1, 6]: 32%
- minus arene [1, 6]: 36%
- half life of decomposition of the intact cation ([1]; 100 μM, 90% H2O/10% D2O, pH=ca 5.8, 310 K): 21.03 h

Substance: [Ru(benzene)(3(5)-(4-dimethylaminophenylazo)pyrazole)Cl]PF6 [Compound 17]
- hydrolysed [1, 7]: 40%
- intact chloride complex [1, 7]: about 60%
- intact chloride complex remaining ([1]; saturated solution, 90% H2O/10% D2O, pH=ca. 4.5, 25° C., initially (time=45 mins)): ca. 77%

Substance: [Ru(biphenyl)(Azpy-NMe2)I]PF6 [Compound 10]
- hydrolysis [2]: no hydrolysis had occurred
- change of complex in solution [1, 8]: No change occurred

Substance: [Ru(p-cymene)(4-phenol-azo pyridine)I]PF6 [Compound 21]
- hydrolysis [2]: no hydrolysis had occurred
- change of complex in solution ([1]; 100 μM, 90% H2O/10% D2O, pH=ca. 6.5, 37° C. over 24 hours): No change occurred

Substance: [Ru(biphenyl)(4-phenol-azo pyridine)I]PF6 [Compound 13]
- half live for hydrolysis [3]: 2.14 h
- hydrolysis [2]: no hydrolysis had occurred
- change of complex in solution [1, 8]: No change occurred

Substance: [Ru(bip)(2-phenyl-azo pyridine)I]PF6 [Compound 7]
- hydrolysis [1, 9]: No hydrolysis occurred
- loss of the arene from the complex [1, 9]: about 5%

Substance: [Ru(biphenyl)(4-phenol-azo pyridine)Cl]PF6 [Compound 12]
- speciation: arene loss [1, 10]: 64%
- speciation: hydrolysis [1, 10]: 5%
- speciation: intact cation [1, 10]: 31%
- half life of decomposition of the intact cation [1, 10]: 13.05 h

Substance: [Ru(biphenyl)(Azpy-NMe2)Cl]PF6 [Compound 9]
- arene loss [1, 11]: ca. 40%
- intact chloro complex [1, 11]: about 50%
- speciation: arene loss [1, 12]: 67%
- speciation: hydrolysis [1, 12]: 9%
- speciation: intact cation [1, 12]: 24%
- half life of decomposition of the intact cation [1, 12]: 20.27 h
- changes in the spectrum over time ([1]; saturated solution (filtered) in 100% D2O, 25° C. over 25 hours): No changes occurred
